This data set has as its system A-549 (human lung carcinoma) cells. The data set can be described thus: Cytotoxicity by microscopic morphological changes in uninfected toxicity control wells.

The record followed here is patent US6468991B1, “Method of treating rhinoviral infections” (Cyclis Pharmaceuticals, Inc., priority 1997, dated 2002).

Take “2′,3′-cyclophosphateadenylyl(2′,5′)adenylyl-(2′,5′)adenosine [Papirine AIII]”: the CD50 was greater than 320 µM (Expt. 1, 5 days' incubation at 37° C., drug changed every 24 hours, A549 cells); greater than 320 µM (Expt. 1, 5 days' incubation at 37° C., drug present without medium change, A549 cells); greater than 160 µM (Expt. 2, 3 days' incubation at 37° C., drug changed every 24 hours, A549 cells); greater than 160 µM (Expt. 2, 3 days' incubation at 37° C., drug present without medium change, A549 cells); greater than 160 µM (Table 2, second experiment, drug changed every 24 hours); greater than 160 µM (Table 2, second experiment, drug present without medium change).
